Measurements from patent publication US11098113B2, “Immunoglobulin single variable domains directed against macrophage migration inhibitory factor” (VIB VZW, priority 2016, dated 2021).

Columns and labels:
[1] = target: T1, recombinant mouse MIF (rmMIF) (Mus musculus, UniProt P34884); assay: Surface plasmon resonance, binding to immobilized mouse MIF; details: SPR, mouse MIF immobilised on CM5 chip, 1:1 Langmuir model
T1 construct: purchased R&D systems
Protocol: (§1) Surface plasmon resonance (SPR) experiments were performed on a BIAcore T200 system (GE Healthcare). Recombinant mouse MIF (rmMIF) or rhMIF (R&D systems) was immobilized on a CM5 chip (GE Healthcare). Briefly, the carboxylated dextran matrix was activated by injection of 0.2 M N-ethyl-N′-(3-diethylaminopropyl) carbodiimide (EDC) and 0.05 M N-hydroxysuccinimide (NHS) at a flow rate of 5 μl/min for 7 min. A rmMIF solution of 5 μg/ml prepared in coupling buffer (50 mM sodium acetate pH 4.0) was subsequently injected until 200 R.U. was immobilised. Next, the surface immobilisation was blocked by injection of 1 M ethanolamine hydrochloride for 7 min. As a reference, the surface in another flow cell was used and treated only with EDC, NHS, and ethanolamine. Data for the rmMIF-ISVD interaction were collected in the format of a kinetic titration (27). Sensorgrams for the anti-mMIF ISVDs/ISVD-constructs were collected at five different concentrations (½ serial dilution starting from 100, 150, 200 or 750 nM) plus a 0 concentration (injection of running buffer, i.e. HBS [10 mM Hepes (pH 7.5), 150 mM NaCl, 3.5 mM EDTA, 0.005% (v/v) Tween-20]) at a flow rate of 30 μl/min and a data collection rate of 10 Hz. Analyte injections were performed with association phases of 180 s and a dissociation phase of 600 s. This was followed by 5 pulses of 15 μl regeneration buffer (HBS+100 mM NaOH). Prior to data analysis, reference and zero concentration data were subtracted from the sensorgrams. The data were analyzed with a 1:1 Langmuir binding model (27). Data for the rhMIF-ISVD interaction were collected as described elsewhere (28) and analyzed with a 1:1 Langmuir binding model.

[2] = target: T2, rhMIF (recombinant human MIF) (Homo sapiens, UniProt P14174); assay: Surface plasmon resonance, binding to human MIF; details: SPR, 1:1 Langmuir model
T2 construct: recombinant human MIF^2-115 (rhMIF, R&D Systems); purchased R&D systems
T2 sequence (P14174 2-115): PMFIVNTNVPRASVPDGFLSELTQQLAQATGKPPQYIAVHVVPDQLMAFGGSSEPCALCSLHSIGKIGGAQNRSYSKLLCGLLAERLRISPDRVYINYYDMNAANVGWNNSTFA
Protocol: as §1

[3] = system: LPS stimulated RAW264.7 macrophages; assay: TNF production by LPS stimulated RAW264.7 macrophages; assay type: cell-based, murine; details: RAW264.7, LPS, ISVD at a concentration of 0.5-1.67 μM
Protocol: FIG. 1: Inhibition of MIF's biological activities by anti-MIF ISVDs (indicated as “Nb”). […] Briefly, cells were treated with 500 nM of each anti-MIF ISVD and an irrelevant ISVD was used as a negative control. After 18 hours of incubation, cell culture supernatants were collected for the determination of TNF concentration. Data is shown as the mean±SEM. Statistical analysis was performed by comparing TNF levels of ISVD-treated LPS-stimulated cells to levels of untreated LPS-stimulated cells. The dotted line represents TNF levels (cut-off level) of mice stimulated with LPS alone. D) Inhibition of MIF D-dopachrome tautomerase activity by anti-MIF ISVDs. ISO-1 was used as positive control. The activity was determined by the semi-continuous reduction in signal (tautomerization) measured at OD450nm in the presence and absence of anti-MIF ISVDs. The % activity was expressed in relationship to the tautomerase activity of rmMIF alone. The dotted line represents 100% activity (i.e. when only MIF was used). […]
Experiments were performed using either the human monocytic cell line THP-1 (ATCC), the murine macrophage cell line RAW264.7 (ATCC) or human peripheral blood monocytic cells (PBMC's) ex vivo peritoneal exudates cells (PECs). […] Finally, the cells were resuspended in ME medium, counted and brought at a concentration of 5*10^5/ml (stock solution). […]

Molecule | Kon [1] | Kon [2] | TNF reduction [3] [%]
E5: anti-MIF immunoglobulin single variable domain, Family V, SEQ ID NO: 3 (protein, Nanobody Sequence) VHH: EVQLVESGGGLVHAGGSLRLSCAASGRTFSSYFMGWFRQAPGKAREFVANINFSGGTTVYASSVKGRFTISRDNSKNTVYLQMNSVKPEDTAVYYCVARGLTQDYDYWGQGTQVTVSS | 1.63 10^5M^−1s^−1 | 0.78 10^5M^−1s^−1 | 50
D2: anti-MIF immunoglobulin single variable domain, Family III, SEQ ID NO: 7 (protein, Nanobody Sequence) VHH: EVQLVESGGGLVQDGGSLRLSCAASGRTASIHTMGWFRQAPGQERGFVGNIGWNYGLTLYADSVKGRFTISRDNAKNTVYLQMNNLKPEDTAVYYCAARIGTTPYDYWGQGTQVTVSS | 1.51 10^5M^−1s^−1 | 0.75 10^5M^−1s^−1 | 
D4: anti-MIF immunoglobulin single variable domain, Family III, SEQ ID NO: 8 (protein, Nanobody Sequence) VHH: KVQLVESGGGLVQDGGSLRLSCAASGRTASIQVMGWFRQAPGKEREFVGNIGWNYGLTLYPDSVKGRFTISRDNAKNTVYLQMNNLKPEDTAVYYCAARIGTTTYDYWGQGTQVTVSS | 0.99 10^5M^−1s^−1 | 0.44 10^5M^−1s^−1 | 
F10: anti-MIF immunoglobulin single variable domain, Family III, SEQ ID NO: 9 (protein, Nanobody Sequence) VHH: EVQLVESGGGLVQDGGSLRLSCAASGRTASIQVMGWFRQAPGKEREFVGNIGWNYGLTLYPDSVKGRFTISRGNAKNAVYLQMNNLKPEDTAVYYCAARIGTTTYDYWGQGTQVTVSS | 0.19 10^5M^−1s^−1 |  | 
H5: anti-MIF immunoglobulin single variable domain, Family IV, SEQ ID NO: 5 (protein, Nanobody Sequence) VHH: EVQLVESGGGLVQPGGSLRLSCVASGFTFRTYAMSWVRQAPGKGSEWVSTINNGGGVTGYADSVEGRFTISRDNAKNTLYLQMNSLKPEDTAVYYCAKGTSRGQGTQVTVSS | 1.16 10^5M^−1s^−1 | 0.17 10^5M^−1s^−1 | 
H9: anti-MIF immunoglobulin single variable domain, Family V, SEQ ID NO: 4 (protein, Nanobody Sequence) VHH: EVQLVESGGGLVHAGGSLRLSCAASGRTSSTYFMGWFRQAPGKAREFVANINFSGGTTVYASSVKGRFTISRDNSKNTVYLQLNSVKPEDTAVYYCSARGLNQEYDFWGQGTQVTVSS | 0.70 10^5M^−1s^−1 | 0.32 10^5M^−1s^−1 | 
D12: anti-MIF immunoglobulin single variable domain, Family VI, SEQ ID NO: 2 (protein, Nanobody Sequence) VHH: EVQLVESGGGLVQAGGSLRLSCAASGRTISSYIVGWFRQAPGKEREFVANIGWSGSMPLYADSVKGRFTIFRDNAKNTVYLEMNKLKPEDTAVYYCAARGAGQLTNDYWGQGTQVTVSS | 0.59 10^5M^−1s^−1 | 0.18 10^5M^−1s^−1 | 
E10-E10: bivalent ISVD E10 construct, SEQ ID NO: 120 (protein, Fusion protein) EVQLVESGGGSVQAGDSLRLSCAASGRTLSNSIMGWFRQAPGKEREFVANINWSGTSRLYADSVKGRFTISRDNTKSTVYLQMNSLKPEDTAIYYCAARSSTMSATDYWGQGTQVTVSSGGGGSGGGSEVQLVESGGGSVQAGDSLRLSCAASGRTLSNSIMGWFRQAPGKEREFVANINWSGTSRLYADSVKGRFTISRDNTKSTVYLQMNSLKPEDTAIYYCAARSSTMSATDYWGQGTQVTVSS | 3.51 10^5M^−1s^−1 |  | 
B5: anti-MIF immunoglobulin single variable domain, Family I, SEQ ID NO: 11 (protein, Nanobody Sequence) VHH: EVQLVESGGGLVQAGGSLRLSCAASGRSFSNYIMGWFRQAPGKEREFVANISWNYGTTFYADSVKGRFTISGDSAKNTVYLQMTSLKPEDTAVYYCAARPVRGGRNFDYWGQGTQVTVSS | 1.42 10^5M^−1s^−1 | 0.41 10^5M^−1s^−1 | 
C10: anti-MIF immunoglobulin single variable domain, Family II, SEQ ID NO: 10 (protein, Nanobody Sequence) VHH: EVQLVESGGGLVQAGGSLRLSCAASGRTSSIVAIGWFRQAPGKEREFVSNIGWKFGSTVYVDSVKGRFTISKDNAKNTVYLQMNSLKPEDTAVYRCAARSDGRVYDSWGQGTQVTVSS | 1.63 10^5M^−1s^−1 | 0.38 10^5M^−1s^−1 | 
A2: anti-MIF immunoglobulin single variable domain, Family III, SEQ ID NO: 6 (protein, Nanobody Sequence) VHH: EVQLVESGGGLVQDGGSLRLSCAASGRTASIQVMGWFRQAPGKEREFVGNIGWNYGLTLYADPVKGRFTISRDNAKNTVYLQMNNLKPEDTAVYYCAARIGTITYDYWGQGTQVTVSS | 1.43 10^5M^−1s^−1 | 3.11 10^5M^−1s^−1 | 
